Data reported in paper PMC6928210, “Structural basis of methotrexate and pemetrexed action on serine hydroxymethyltransferases revealed using plant models” (Scientific Reports, 2019).
Where two headings read alike, the source gives them in different places.

Key:
AtSHMT2 = target: T1, AtSHMT2 (Arabidopsis thaliana, UniProt Q94C74); test: SHMT forward reaction (serine + THF), coupled assay, initial velocity; type: biochemical; details: 30 °C, read-out: KiTHF (THF substrate inhibition constant)
T1 construct: the protein N-truncated at E41; The open reading frames coding for AtSHMT2 41–517 fragment; His6 (N, cleaved yes); made in house; host or cells: E. coli BL21 Gold
T1 sequence (Q94C74 41-517): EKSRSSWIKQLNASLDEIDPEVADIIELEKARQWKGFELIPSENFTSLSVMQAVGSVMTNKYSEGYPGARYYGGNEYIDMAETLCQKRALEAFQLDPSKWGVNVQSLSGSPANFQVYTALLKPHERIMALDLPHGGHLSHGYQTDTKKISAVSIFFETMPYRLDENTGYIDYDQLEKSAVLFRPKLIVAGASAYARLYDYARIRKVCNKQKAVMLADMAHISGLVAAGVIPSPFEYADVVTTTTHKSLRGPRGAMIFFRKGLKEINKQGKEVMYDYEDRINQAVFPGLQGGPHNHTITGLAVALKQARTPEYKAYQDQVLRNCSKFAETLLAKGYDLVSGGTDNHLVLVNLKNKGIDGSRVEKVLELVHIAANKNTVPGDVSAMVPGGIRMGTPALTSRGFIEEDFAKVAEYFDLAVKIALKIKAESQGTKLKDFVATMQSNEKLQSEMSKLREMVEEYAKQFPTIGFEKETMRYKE

AtSHMT4 = target: T2, AtSHMT4 (Arabidopsis thaliana, UniProt O23254); test: as above; type: biochemical; details: 30 °C, read-out: KiTHF (THF substrate inhibition constant)
T2 construct: The open reading frames coding for AtSHMT2 41–517 fragment and full-length AtSHMT4 were amplified; His6 (N, cleaved yes); made in house; host or cells: E. coli BL21 Gold
T2 sequence (O23254 1-471): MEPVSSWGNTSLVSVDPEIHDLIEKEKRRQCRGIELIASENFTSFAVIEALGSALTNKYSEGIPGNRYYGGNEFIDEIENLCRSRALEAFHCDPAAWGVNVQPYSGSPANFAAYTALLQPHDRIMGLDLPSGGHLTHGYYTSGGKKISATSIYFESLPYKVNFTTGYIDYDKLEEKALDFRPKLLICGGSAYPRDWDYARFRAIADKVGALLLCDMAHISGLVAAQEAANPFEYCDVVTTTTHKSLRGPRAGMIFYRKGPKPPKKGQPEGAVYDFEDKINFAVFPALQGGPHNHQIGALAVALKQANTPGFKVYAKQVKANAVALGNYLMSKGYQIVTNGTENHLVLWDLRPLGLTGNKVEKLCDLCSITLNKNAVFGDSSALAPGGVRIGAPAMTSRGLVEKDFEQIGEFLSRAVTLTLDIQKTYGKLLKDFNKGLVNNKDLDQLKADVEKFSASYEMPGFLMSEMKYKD

In the case of tetrahydrofolate [THF], the Ki (AtSHMT2; AtSHMT2, pH 6.5, 30 mM L-serine fixed) is reported as 189 ± 12.8 µM, the Ki (AtSHMT2; AtSHMT2, pH 7, 30 mM L-serine fixed) is reported as 191 ± 9.5 µM and the Ki (AtSHMT2; AtSHMT2, pH 8, 30 mM L-serine fixed) is reported as 186 ± 11.7 µM. It also gave a Ki (AtSHMT2; AtSHMT2, pH 8.5, 30 mM L-serine fixed) of 152 ± 8.7 µM, a Ki (AtSHMT2; AtSHMT2, pH 9.5, 30 mM L-serine fixed) of 127 ± 5.5 µM and a Ki (AtSHMT4; AtSHMT4, pH 6.5, 30 mM L-serine fixed) of 48.1 ± 9.69 µM. It also gave a Ki (AtSHMT4; AtSHMT4, pH 7, 30 mM L-serine fixed) of 57.5 ± 6.56 µM, a Ki (AtSHMT4; AtSHMT4, pH 8, 30 mM L-serine fixed) of 141 ± 23.2 µM and a Ki (AtSHMT4; AtSHMT4, pH 8.5, 30 mM L-serine fixed) of 163 ± 26 µM. It also gave a Ki (AtSHMT4; AtSHMT4, pH 9.5, 30 mM L-serine fixed) of 288 ± 39.2 µM.
